# Yeast mating assay 2: variants of the scFv Ab-91

Reference: Engelhart et al. 2022, doi:10.1038/s41597-022-01779-4. File: FLAb, binding data.

Binding partner: SARS-CoV-2 spike HR2 peptide, sequence PDVDLGDISGINAS.

Parent: Ab-91, a human scFv built as VL, a 15-residue (Gly4Ser)3 linker, VH. Only the CDRs of the heavy chain vary.
VL: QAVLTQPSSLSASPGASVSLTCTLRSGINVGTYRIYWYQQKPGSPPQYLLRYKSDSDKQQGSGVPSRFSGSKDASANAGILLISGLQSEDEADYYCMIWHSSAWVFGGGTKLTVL
VH: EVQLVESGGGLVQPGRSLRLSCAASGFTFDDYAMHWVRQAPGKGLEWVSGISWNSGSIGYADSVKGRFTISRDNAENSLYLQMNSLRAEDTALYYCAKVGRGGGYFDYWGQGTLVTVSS

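Phage display of a naive human antibody library on the peptide gave the parent. Library AAYL51 holds single substitutions and randomly drawn double and triple substitutions in the CDRs. The assay is AlphaSeq: two haploid yeast populations carry antibody and antigen on their surface. After mating in shaken culture at 30 °C for 16 h, diploids were selected and their barcode pairs sequenced. Each replicate has its own calibration line, from reference interactions of the BCL2 family. There are three technical replicates.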

Changes read parent residue, position, new residue, counted from the first residue of the VH shown. All variants listed here change F29 of the VH, counted from its first residue. Each Kd is an estimate from the mating assay, the geometric mean of the replicates in which the pair was seen; lower is stronger. Where no diploid with the target was found in any replicate, the entry reads "no signal": below detection, most likely a poor binder, though not proof of it. Empty control strains, which show no peptide, gave a signal in 21% of pairings with library AAYL51; the median was 34 µM and 95% of these signals were weaker than 1.8 µM. No background was subtracted.

For F29I/K65Q/F106S, the assay gave no signal (0 of 3 replicates). With F29V/A33T/G50E the result was 56 µM (1 of 3 replicates). The variant F27K/F29W/M34G gave no signal (0 of 3 replicates). The variant F29N/S55I showed no signal (0 of 3 replicates). The variant F29I/D30K/Y32K showed 1.1 µM (1 of 3 replicates).

The variant F29Y/G59D/G102F gave no signal (0 of 3 replicates). With F29M/N54C the result was 380 µM (1 of 3 replicates). For F29V/D30C/V99E, the assay gave 140 µM (3 of 3 replicates). The variant F29P/G56T/V64S gave no signal (0 of 3 replicates). The variant T28K/F29T/S52D gave 540 nM (1 of 3 replicates).

The variant G26D/F29S/Y60F showed 5.1 µM (1 of 3 replicates). The variant G26Y/F29E/G102W showed 26 µM (1 of 3 replicates). With F27W/F29M/S52V the result was 55 µM (3 of 3 replicates). With F27W/F29S/G103M the result was 25 µM (1 of 3 replicates). For F29N/G50I/S63G, the assay gave 33 µM (1 of 3 replicates).

The variant F29R/V64L/Y108A showed no signal (0 of 3 replicates). With F29Y/W53R/S63T the result was 1.5 µM (2 of 3 replicates). For F29H/M34Y/W53R, the assay gave 33 µM (2 of 3 replicates). The variant F29I/A33R/K65F showed no signal (0 of 3 replicates). With G26P/F29P/G100T the result was 9.3 µM (1 of 3 replicates).

With F29I/S55P/I58N the result was 900 µM (1 of 3 replicates). The variant F29Y/G59N/Y105V showed 22 µM (1 of 3 replicates). With F29P/K65I/D107M the result was 21 µM (1 of 3 replicates). The variant F29Q/D62Y/G102C gave 17 µM (1 of 3 replicates). The variant F29N/A33P/N54P showed no signal (0 of 3 replicates).

The variant F27K/F29S/H35Y gave 250 µM (3 of 3 replicates). The variant G26V/F29H/A33K gave 18 µM (3 of 3 replicates). With F29W/D31E/A61D the result was 29 µM (2 of 3 replicates). The variant F29D/K65M/Y105R gave 5.9 µM (1 of 3 replicates). For F29D/D31N/S55F, the assay gave no signal (0 of 3 replicates).

The variant F29R/I51V/S52C gave no signal (0 of 3 replicates). The variant F29N gave no signal (0 of 3 replicates). The variant F29D/S57L/S63D showed no signal (0 of 3 replicates). The variant F29E/D30G/F106D showed no signal (0 of 3 replicates). The variant F29W/D62Q/Y105C showed no signal (0 of 3 replicates).

The variant T28K/F29V/Y108R showed 460 nM (3 of 3 replicates). The variant F29E/D31A/G100Y gave 190 µM (2 of 3 replicates). With F29N/A33R/S52E the result was no signal (0 of 3 replicates). For F29W/G56I/S63W, the assay gave 30 µM (1 of 3 replicates). For G26W/F29I/S52V, the assay gave no signal (0 of 3 replicates).

For F29Q/Y105D/D107H, the assay gave 79 µM (1 of 3 replicates). The variant F29A/W53R/I58D showed 45 µM (1 of 3 replicates).

The 4 strongest on average among those seen in every replicate, once more:

changes	Kd	replicates with signal
T28K/F29V/Y108R	460 nM	3 of 3
G26V/F29H/A33K	18 µM	3 of 3
F27W/F29M/S52V	55 µM	3 of 3
F29V/D30C/V99E	140 µM	3 of 3

For reference, the parent read 72 nM as the reference entry and 7.5 nM as a member of this library.